Source: patent US12638439B2, “Method of using human spheroids for drug discovery” (AxoSim, Inc., priority 2019, dated 2026)

tested on: RTT spheroids; assay: FLIPR spontaneous calcium oscillation assay of iPSC-derived cortical brain spheroids (SMART library screen); assay type: cell-based, human; details: 298-compound SMART library on WT and RTT matured spheroids
From the text: In one embodiment, the present disclosure provides human induced pluripotent stem cells iPScs that are subsequently differentiated into human cortical neurons comprising neurons and astrocytes in approximately a 50:50 ratio. The ratio can be adjusted on a case by case basis depending on the particular disease of interest from 1 to 99% either neurons or astrocytes. The 3D spheroids are comprised of approximately 50:50 neurons to astrocytes ratio +1-10%. The methods of differentiating and forming 3 dimensional spheroids and functional testing with FLIPR optical techniques is described in copending patent application No. 62/532667. In the examples in this invention we use a disease model cell line which are known to carry genes responsible for Rett syndrome.
In the present disclosure both Wild Type (WT) and Rett Disease (RTT) cortical brain human tissue spheroids were prepared for the purpose of high throughput screening to identify therapeutic compounds that can modulate the brain activity in an attempt to revert or rescue the disease state back to near normal activity or homeostasis. For example, the cell lines employed (control or “WT” and disease “RTT”) may be from a family without and with the Rett disease phenotype.
The method disclosed herein may, in one embodiment, include manufacturing 3D spheroids in 384 well round bottom microtiter plates, see, e.g. U.S. patent application No. 62/532,667, the disclosure of which is incorporated herein. […] In the present disclosure, 6 to 14 weeks of maturation is a maturation range for testing, e.g., 8 to 10 weeks of maturation.
The oscillations being measured are from calcium flux moving into and out of the cells at ambient conditions. The oscillations are spontaneous and not generated by an external source. The measurements are conducted in real time and the data captured by using a technique called FLIPR that is well known in the prior art. […] When analyzing the data, it is important to understand that multiple factors contribute to the signal being recorded by the FLIPR software. Therefore, in the present disclosure 7 parameters are recorded to determine if the data generated from the spheroid is meaningful. The parameters measured are, e.g., peak count, peak width, average peak spacing, peak spacing standard deviation, peak decay time, peak rise time, and/or peak amplitude.
In the present disclosure, the SMART library that contained 298 compounds was used on both WT and RTT matured spheroids over several weeks and the FLIPR data collected and analyzed for potential therapeutic efficacy. The SMART (Selected Molecular Agents for Rett Therapy) library of compounds is well vetted by modern day bioinformatics methods, tightly focused on Rett syndrome and its biological causes. The library is currently housed at the University of Illinois-Chicago. […] With the goals in mind to save both time and resources and accelerate drug discovery for Rett syndrome, the compounds in the SMART library are readily available to investigators working on Rett syndrome research.

Compound	outcome of the SMART library screen (multivariant analysis)
Cl.Cl.OCCOCCN1CCN(C(c2ccccc2)c2ccc(Cl)cc2)CC1 (centres unmarked) [Hydroxyzine Dichloride]	therapeutics of interest
Fc1ccc([C@@H]2CCNC[C@H]2COc2ccc3c(c2)OCO3)cc1 [Paroxetine]	therapeutics of interest
C#CCN(C)[C@H](C)Cc1ccccc1 [Selegiline Hydrochloride]	therapeutics of interest
CCCC(CCC)C(=O)O [Valproate DPA]	therapeutics of interest
Pirlindole Mesylate	therapeutics of interest

Where a name gives a salt, the structure may show the parent alone.
